Biological target: HLA-C*16:02 on cells loaded with P9 with the Q8W substitution (…) (human | human (endogenous in 721.221))
Assay: flow cytometry on cells

Protein sequences, listed by entry. Tags and fused reporters are not part of them. Residues count along the entry.
UniProt P43632, 22-245: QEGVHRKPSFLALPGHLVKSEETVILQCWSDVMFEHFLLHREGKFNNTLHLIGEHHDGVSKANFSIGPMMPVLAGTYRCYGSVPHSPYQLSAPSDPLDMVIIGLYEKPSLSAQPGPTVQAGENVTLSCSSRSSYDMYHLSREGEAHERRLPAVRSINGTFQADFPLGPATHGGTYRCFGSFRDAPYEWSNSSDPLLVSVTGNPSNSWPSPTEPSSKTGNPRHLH

KIR2DS4*001 KIR-Ig (KIR-Fc) fusion protein (from UniProt P43632 22-245) (Fc fusion)
fold change of binding against unmodified P9: 90 fold
